## Measured affinities in a library of Ab-14 heavy chain variants

From the AlphaSeq antibody data of Engelhart et al. 2022 (doi:10.1038/s41597-022-01779-4), copy in the FLAb collection.

Target peptide (SARS-CoV-2 spike, HR2 region): PDVDLGDISGINAS

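The parent was found by panning a naive human phage display library on the peptide. Variants in AAYL49 differ from the parent at up to three CDR positions; double and triple changes were sampled at random. The scFvs were displayed on barcoded MATa yeast, the peptide on MATalpha yeast. Pairs that bind mate more often; barcode pairs of the diploids are counted by sequencing. A regression on co-assayed BCL2-family reference pairs converts the normalised counts of each replicate to an apparent Kd. Mating was done three times.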

Ab-14 is the parent antibody, in scFv form: VH, then a (GGGGS)3 linker, then VL. The light chain is unchanged in all variants.
VH: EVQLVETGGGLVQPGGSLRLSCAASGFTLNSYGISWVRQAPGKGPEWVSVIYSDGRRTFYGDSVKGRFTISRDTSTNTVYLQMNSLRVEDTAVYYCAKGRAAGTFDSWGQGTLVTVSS
VL: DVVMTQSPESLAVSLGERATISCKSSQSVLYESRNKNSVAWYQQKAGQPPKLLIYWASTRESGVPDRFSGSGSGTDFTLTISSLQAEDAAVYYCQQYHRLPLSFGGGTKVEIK

Each variant is given by its three heavy chain CDRs, as the data file delimits them; those of the parent are GFTLNSYGIS, VIYSDGRRTFYGDSVK, GRAAGTFDS. Numbers give log10(Kd / nM), so 0 is 1 nM and 3 is 1 µM. Smaller is tighter. Averages over replicates are reported, and they cover detected replicates only. "nd" marks a missing value. The strain was present, yet no cells mated with the target were sequenced in that replicate, which points to weak or no binding. As a blank, each scFv also met three strains without target: over library AAYL49, 15% of these pairings were detected, typically at 4.06 and seldom below 2.83. For each scFv, signals with the empty controls are counted beside the result, with their mean in brackets.

| # | CDR-H1 | CDR-H2 | CDR-H3 | log10 Kd, replicates | mean, log10 nM | control signals |
|---|---|---|---|---|---|---|
| 1 | GFTLNMYGIS | VIYSDYRRTFGGDSVK | GRAAGTFDS | 3.84 / nd / nd | 3.84 | 1 of 9 (4.31) |
| 2 | GFTLNSYGIS | VIYYDGRRIFYGDSQK | GRAAGTFDS | nd / nd / nd | nd | 0 of 9 |
| 3 | GFTLNSYGIS | VIDSDGRRTFCGDSVK | GRAAGTFES | nd / nd / nd | nd | 0 of 9 |
| 4 | GFTLNSYGIS | VIYSDVRRTFYGDSVT | GRAAGTFDA | nd / nd / nd | nd | 0 of 9 |
| 5 | GFTLNSYGIS | CIYSDGRRTFYGDSVK | GKADGTFDS | nd / nd / nd | nd | 0 of 9 |
| 6 | GFTYNSYMIS | VIYSDGRRTFYGDSVC | GRAAGTFDS | nd / nd / nd | nd | 0 of 9 |
| 7 | GFTLNSYGIS | VIYQDGRRTFYGYSVK | GRAAGTGDS | nd / nd / nd | nd | 0 of 9 |
| 8 | GFTLNSYGIS | VIYSDGRRTFYGMSVK | GRQAITFDS | nd / nd / nd | nd | 1 of 9 (3.32) |
| 9 | GFTLNSYGIS | QIYSDGRRTFYGDSEK | GNAAGTFDS | nd / nd / nd | nd | 0 of 9 |
| 10 | GFTLNSYGIS | VIYSDGRRTFYGDSHK | TRAAGTFDS | nd / 3.22 / nd | 3.22 | 0 of 9 |
| 11 | GHTLNPYGIS | VIYSDGRRTFYGDSVK | GREAGTFDS | 3.24 / 3.06 / 3.52 | 3.27 | 4 of 9 (4.33) |
| 12 | GFTLNDYGIS | VMYSDGRRTFYGDSVK | TRAAGTFDS | nd / 4.24 / nd | 4.24 | 5 of 9 (3.87) |
| 13 | GFTLNSYGIS | RIYSDGRRTFYGDSVR | GRAAGTFDA | nd / 4.04 / nd | 4.04 | 3 of 9 (3.22) |
| 14 | GHTLNSYGQS | QIYSDGRRTFYGDSVK | GRAAGTFDS | nd / nd / nd | nd | 0 of 9 |
| 15 | GFTLNSYGTS | IEYSDGRRTFYGDSVK | GRAAGTFDS | 4.85 / 3.44 / 3.21 | 3.83 | 3 of 9 (4.19) |
| 16 | GFTLNSYGIS | VIYSDGRRTFYGDSVK | GRNAGTFDS | 0.52 / 1.25 / 0.56 | 0.78 | 0 of 9 |
| 17 | GFTFNSYRIS | VIYSDGRRTFYGDSVK | GRAAGLFDS | nd / 4.50 / nd | 4.50 | 2 of 9 (4.31) |
| 18 | GFTLNSCEIS | VIYSDGRRTFYGDSVK | HRAAGTFDS | 6.83 / 3.92 / 6.03 | 5.60 | 5 of 9 (4.17) |
| 19 | GFTLNLYGIS | VIYSDNRRTFYGDSVK | GYAAGTFDS | nd / nd / nd | nd | 0 of 9 |
| 20 | GFTLNSYVIS | VIMSDWRRTFYGDSVK | GRAAGTFDS | nd / nd / nd | nd | 2 of 9 (4.38) |
| 21 | GFTLNSYGIS | VIYSIGRRTAYDDSVK | GRAAGTFDS | nd / nd / nd | nd | 1 of 9 (1.61) |
| 22 | GFTLNSIGIS | VIYSDGRRTFYGDSVK | KRAAGIFDS | nd / nd / nd | nd | 2 of 9 (2.74) |
| 23 | GFTLNSYGIS | VIWSDGRRTFYGDSVS | GRAAGTFDS | nd / nd / 3.21 | 3.21 | 2 of 9 (3.73) |
| 24 | GFTLNSYGIS | VWYSDGRRTFYGDSVA | GRAAGTFDS | nd / 4.96 / 4.77 | 4.87 | 1 of 9 (2.36) |
| 25 | GFTLNSYGKS | VIYSQGRRTFYGESVK | GRAAGTFDS | nd / nd / nd | nd | 4 of 9 (4.22) |
| 26 | WFTLNSYGIS | VIKSDGRRTFYGDSVK | GSAAGTFDS | nd / nd / nd | nd | 0 of 9 |
| 27 | GFFLNSYGIA | VIYSDGRRTFYGDSVK | GRAAGIFDS | nd / nd / nd | nd | 0 of 9 |
| 28 | GFTLNSYGIS | VIYSDGRRTFWGDNVK | GRAAGVFDS | nd / nd / nd | nd | 1 of 9 (3.43) |
| 29 | AFTLNSYGIS | VIYSDGRRTFYGDSVK | GRSAGTFDQ | 2.00 / 2.02 / 1.98 | 2.00 | 3 of 9 (4.32) |
| 30 | GFTVTSYGES | VIYSDGRRTFYGDSVK | GRAAGTFDS | nd / 4.27 / nd | 4.27 | 2 of 9 (3.53) |
| 31 | GFTLNSYGIS | VIYSDRRRTGYGDSVK | GRAAGTFDS | nd / nd / nd | nd | 0 of 9 |
| 32 | GFTLNSYGIS | VKYSDGCSTFYGDSVK | GRAAGTFDS | nd / nd / nd | nd | 3 of 9 (3.97) |
| 33 | SNTLNSYGIS | VIYSDGRRTFYGDSVK | GRGAGTFDS | 2.34 / 2.05 / 2.40 | 2.26 | 1 of 9 (2.67) |
| 34 | EFTLNSYGIS | VIYSDGRRCFYGDSVK | GRMAGTFDS | 1.72 / 1.85 / 1.93 | 1.83 | 0 of 9 |
| 35 | GFTLNSYIIS | VIYSFGRRTFYGDSVN | GRAAGTFDS | nd / nd / nd | nd | 1 of 9 (2.19) |
| 36 | GFTLNSYGIS | VDYSDGRRRFYGDLVK | GRAAGTFDS | nd / nd / nd | nd | 0 of 9 |
| 37 | GFTLNSYGIS | VIYSDMRRTFYGNSVK | GRRAGTFDS | nd / 3.22 / nd | 3.22 | 2 of 9 (3.95) |
| 38 | GFDLNSYGIS | VPYSDGRRTFYGDSVK | GAAAGTFDS | nd / nd / nd | nd | 3 of 9 (3.27) |
| 39 | GFTLNSYGIS | VIYSHGMRTFWGDSVK | GRAAGTFDS | nd / nd / nd | nd | 0 of 9 |

The 4 strongest on average among those seen in every replicate, once more:

| CDR-H1 | CDR-H2 | CDR-H3 | log10 Kd, replicates | mean, log10 nM | control signals |
|---|---|---|---|---|---|
| GFTLNSYGIS | VIYSDGRRTFYGDSVK | GRNAGTFDS | 0.52 / 1.25 / 0.56 | 0.78 | 0 of 9 |
| EFTLNSYGIS | VIYSDGRRCFYGDSVK | GRMAGTFDS | 1.72 / 1.85 / 1.93 | 1.83 | 0 of 9 |
| AFTLNSYGIS | VIYSDGRRTFYGDSVK | GRSAGTFDQ | 2.00 / 2.02 / 1.98 | 2.00 | 3 of 9 (4.32) |
| SNTLNSYGIS | VIYSDGRRTFYGDSVK | GRGAGTFDS | 2.34 / 2.05 / 2.40 | 2.26 | 1 of 9 (2.67) |